{"source": "paper PMC10344891", "about": "“Continuous enzyme activity assay for high-throughput classification of histone deacetylase 8 inhibitors” (Exploration of Targeted Anti-tumor Therapy, 2023)", "key": {"human KDAC8 [1]": {"molecular_target": "T1, human KDAC8 (Homo sapiens, UniProt Q9BY41)", "T1 sequence (Q9BY41 1-377)": "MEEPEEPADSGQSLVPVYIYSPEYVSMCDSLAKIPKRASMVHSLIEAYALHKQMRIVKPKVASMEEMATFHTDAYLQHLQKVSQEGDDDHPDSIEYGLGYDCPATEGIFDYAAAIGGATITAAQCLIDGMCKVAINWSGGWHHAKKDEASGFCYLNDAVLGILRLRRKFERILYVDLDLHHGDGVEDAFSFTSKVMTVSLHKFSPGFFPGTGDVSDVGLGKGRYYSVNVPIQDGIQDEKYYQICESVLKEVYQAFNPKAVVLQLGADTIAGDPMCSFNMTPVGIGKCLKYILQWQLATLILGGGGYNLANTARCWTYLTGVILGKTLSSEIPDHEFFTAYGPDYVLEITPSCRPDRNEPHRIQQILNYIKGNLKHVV", "test": "Continuous (one-step) KDAC8 enzyme activity assay, IC50 determination", "type": "biochemical", "set-up": "full-length human KDAC8 was produced in E. coli BL21 (DE3); His6-SUMO (N, cleaved yes); made in house; host or cells: E. coli BL21 (DE3), pET14b vector"}, "human KDAC8 [2]": {"molecular_target": "T1, human KDAC8", "test": "Progress curves of continuous KDAC8 assay: relative KDAC8 activity after 5,000 s (stabilization curves)"}}}
{"smiles": "O=C(CCCCCCC(=O)Nc1ccccc1)NO", "note": "[SAHA, suberoylanilide hydroxamic acid]", "values": [{"measurement": "IC50", "setting": "human KDAC8 [1]", "value": "3.6 ± 0.9", "unit": "µM"}, {"measurement": "EC50", "setting": "human KDAC8 [2]", "value": "3.2 ± 0.9", "unit": "µM"}]}
